# Laboratory results from patent US20030049260A1, “Method of improving cognitive function” (priority 2001, published 2003).
# Test system: patients who underwent CPB with CABG
# Test: Randomized, double-blind, placebo-controlled study; change in SDMT score from baseline after CABG with CPB
# Format: in vivo, human
# Conditions: for Proportion of patients with % change in symbol digit score of +20% / Proportion of patients with % change in symbol digit score of +15% / Proportion of patients with % change in symbol digit score of +10% / Proportion of patients with Improve in symbol digit score / Proportion of patients with % change in symbol digit score of -20% / Proportion of patients with % change in symbol digit score of -15% / Proportion of patients with % change in symbol digit score of -10% / Proportion of patients with Decline in symbol digit score: all procedures, all patients
# Protocol: A randomized, multi-center, double-blind, placebo-controlled study was conducted of a humanized single chain antibody that binds to C5, Pexelizumab, administered to patients who underwent CPB with CABG.
# The study population consisted of individuals who elected to undergo non-emergent coronary-artery bypass graft (CABG) surgery, with or without valve surgery, which required the use of a cardiopulmonary bypass (CPB) machine. There were 692 patients involved in the study of bypass related changes in cognitive function as measured by the Symbol Digit Modalities Test (SDMT). Of these, 617 patients underwent CABG only.
# A total of 399 CABG only patients received one of the following treatment combinations: i) Bolus 2.0 mg/kg Pexelizumab followed by 0.05 mg/kg/hr Pexelizumab for 24 hours; or ii) placebo. The Pexelizumab or matching placebo was provided as a solution for injection in 30 ml vials with a concentration of 2 mg/ml. Patients received the bolus of study medication ten (10) minutes before the initiation of cardiopulmonary bypass via a unique line. The drug was not to be combined with other medication given via this route. The infusion began immediately following bolus administration, and continued for 24 hours at a constant drip rate.
# Patients were evaluated at an initial screening visit at which the SDMT was administered to establish a baseline result for each patient.
# The results of the study for day 4 and day 30 for patients who underwent CABG with or without valve surgery are presented in Tables I and II, respectively, below. The relevance of changes in symbol digit scores at day 4 and day 30 was studied.
# [1] = 30 d, Bolus/Infusion, placebo 22.9
substance,measurement,setting,value
Pexelizumab: humanized single chain antibody that binds to C5 (anti-C5 antibody h5G1.1-scFv),Proportion of patients with % change in symbol digit score of +20%,"4 d, Bolus/Infusion (n = 221), placebo 9.4",13.1
same,Proportion of patients with % change in symbol digit score of +15%,"4 d, Bolus/Infusion (n = 221), placebo 12.1",16.3
same,Proportion of patients with % change in symbol digit score of +10%,"4 d, Bolus/Infusion (n = 221), placebo 13.9",20.8
same,Proportion of patients with Improve in symbol digit score,"4 d, Bolus/Infusion (n = 221), placebo 29.3",37.1
same,Proportion of patients with % change in symbol digit score of -20%,"4 d, Bolus/Infusion (n = 221), placebo 40.4",30.3
same,Proportion of patients with % change in symbol digit score of -15%,"4 d, Bolus/Infusion (n = 221), placebo 47.1",34.0
same,Proportion of patients with % change in symbol digit score of -10%,"4 d, Bolus/Infusion (n = 221), placebo 55.2",41.2
same,Proportion of patients with Decline in symbol digit score,"4 d, Bolus/Infusion (n = 221), placebo 70.7",62.9
same,Proportion of patients with % change in symbol digit score of -20%,"30 d, Bolus/Infusion, placebo 9.8",8.1
same,Proportion of patients with % change in symbol digit score of -15%,"30 d, Bolus/Infusion, placebo 12.6",10.2
same,Proportion of patients with % change in symbol digit score of +20%,[1],31.0
same,Proportion of patients with % change in symbol digit score of -10%,[1],12.7
same,Proportion of patients with % change in symbol digit score of +15%,"30 d, Bolus/Infusion, placebo 31.3",41.6
same,Proportion of patients with Decline in symbol digit score,"30 d, Bolus/Infusion, placebo 32.4",19.8
same,Proportion of patients with % change in symbol digit score of +10%,"30 d, Bolus/Infusion, placebo 41.1",54.8
same,Proportion of patients with Improve in symbol digit score,"30 d, Bolus/Infusion, placebo 67.6",80.2
same,Patients with a decline in symbol digit score of greater than or equal to 10%,"Day 4, patients undergoing CABG only, bolus/infusion, placebo 56%, p=0.02",40%
